# E-sel inducer = induces E-selectin expression in human endothelial cells; 0.37% of 260,000 active; activation, % at 7.58 µM; HUVEC E-selectin immunofluorescence imaging; normalized: neutral wells 0, TNF-alpha wells 100; AID 686992; P16581;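 active = mean E-selectin-positive cell signal at least 10% of the positive control, reached in at least 60% of replicates, without over 20% cell loss; inconclusive = no rule given, readout overlaps actives, possibly toxicity-flagged; inactive = the rest, including those meeting only one limit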
#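 Read-out: % PE-positive cells | Test system: HUVEC | Doses: One compound dose added by pin transfer | Buffer or medium: EGM-2 over gelatin coat | Signal: Immunofluorescence imaging | Benchmarks: TNF-alpha, DMSO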
# ARNT TACC3 PPI = disrupts binding between human ARNT and TACC3. Q9Y6A5. AlphaScreen His-ARNT PAS-B/GST-TACC3 binding, luminescence; TACC3 fragment carries E629A point mutation. inhibition, % at 9.99 µM. 0.66% of 390,000 active. AID 623870;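 active = mean inhibition of replicates at least 50% and at least half of replicates each reaching 50%; inconclusive = half or more replicates reach 50% but mean below 50%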;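 also: 0% = complete ARNT plus TACC3 wells and 100% = ARNT alone without TACC3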
# AF4-AF9 inh = MLL-AF4/AF9 protein interaction inhibition. P42568. inhibition, % at 10 µM. AlphaScreen, biotin-AF4 peptide binding to FLAG-AF9. AID 651704. 0.47% of 350,000 active;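 active = every replicate reaching a set inhibition limit, whatever the replicate mean, cut at about 25% in these data; inconclusive = mean inhibition reaches that limit but some replicates miss it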;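 also: 0% = plate neutral control median and 100% = total signal loss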
# ERAP1 inh = ERAP1 (human) enzyme inhibition; Q9NZ08; recombinant ERAP1, Leu-AMC fluorescence, 60 min; inhibition, % at 10.7 µM; 0.15% of 340,000 active; AID 652197;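 active = mean replicate inhibition of at least 30%, or all replicates individually reaching that 30% level; inactive = mean below 30% and not every replicate reaching it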;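 also: 0% = neutral control wells and 100% = L-leucinethiol positive control wells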
# UUG fidelity = modulators of yeast start codon fidelity, primary screen, whole organism, S. cerevisiae, single point, plate reader | AID 602363, 2012 | actives 0.13% (n = 350,000) | activity score, % at 18.7 µM | S. cerevisiae UUG-firefly luciferase reporter, luminescence/redox ratio;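 active means replicate mean at a twofold rise or more, about +100% in these data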;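 further: firefly luciferase made from a UUG start codon reports start codon fidelity; reporter light over untreated wells divided by growth signal over untreated wells; some hits fall short of that in this replicate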
# S100A4 inh HTS = blocks human S100A4 binding to myosin IIA peptide. P26447. S100A4/TAMRA-MyoIIA peptide fluorescence polarization. inhibition, % at 10.7 µM. 0.14% of 360,000 active;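 active = mean inhibition of at least 70% across replicates, with every replicate also reaching that level; inconclusive = mean inhibition reaches 70% but some replicates fall short; inactive = mean inhibition below 70%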
#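 Material: S100A4 monomer protein / Buffer or medium: 50 mM HEPES pH 7.2, 10 mM CaCl2, 100 mM KCl / Times: 5 min incubation before reading / Benchmarks: neutral control DMSO, positive control TFP / Reagent: labelled myosin peptide probe, 5 nM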
# Alpha interfer = interferes with the AlphaScreen assay signal | shares compounds with AF4-AF9 inh | AlphaScreen interference counter-screen, signal luminescence | AC50, µM (highest dose often 12 µM), for inactives: at the highest dose activity change, negative = inhibition | 45% of 530 active | AID 720494; cut-off not given, nearly all actives have AC50 up to about 14 µM
# Starred values were filed as active, the others as inactive; ? = inconclusive; nt = no result. This is a sample that favours compounds with a hit; in the whole collection about 1.3% have one here.
[1] CC(=O)N(C)C[C@@H]1Oc2cc(-c3ccncc3)ccc2S(=O)(=O)N([C@H](C)CO)C[C@@H]1C
[2] CN(C)c1cccc2c(C=C(C#N)C#N)ccc(N(C)C)c12
[3] N#C/C(N=Nc1ccccc1O)=N\Nc1ccccc1O
[4] CN(C)c1ccc(C(CN)c2c[nH]c3ccccc23)cc1 (stereo not drawn)
[5] CN=c1scc(-c2ccccc2F)n1/N=C(\C)c1cccnc1
[6] C/C(=N\N1CCN(C2c3ccccc3-c3ccccc32)CC1)c1cccnc1
[7] c1ccc2c(Nc3ccc4c(c3)OCCO4)c3c(nc2c1)CCCC3
[8] Fc1cccc(Nc2c3c(nc4ccccc24)CCC3)c1
Compound,1,2,3,4,5,6,7,8
E-sel inducer,0.7,0.0,0.0,10.5,nt,nt,nt,nt
ARNT TACC3 PPI,-5.6,6.9,37.4,20.3,39.5*,-5.3,18.2,1.1
AF4-AF9 inh,-2.2,50.8*,34.3*,30.2*,36.9*,nt,23.8,-1.7
ERAP1 inh,2.9,-3.4,nt,3.8,1.0,nt,0.5,1.3
UUG fidelity,-7.1,-19.9,-43.2,1.3,nt,-49.0,nt,-17.8
S100A4 inh HTS,-65.4,6.1,-7.7,-4.4,-3.2,nt,0.5,-5.2
Alpha interfer,nt,-23.1%,8.51µM*,-33.1%,-31.1%,nt,-28.8%,nt

[9] CCN(CC)c1ccc(N=Cc2ccc([N+](=O)[O-])o2)cc1
[10] O=C(CNC(=O)c1ccco1)Nc1ccc(N2CCCCCC2)cc1
[11] O=C(CNCc1ccco1)Nc1ccc(N2CCCCCC2)cc1
[12] O=C(NC(c1ccc(Cl)cc1)c1cc(Cl)c2cccnc2c1O)c1cccnc1 (stereo not drawn)
[13] CN1CCN(C(c2ccc(C(F)(F)F)cc2)c2cc(Cl)c3cccnc3c2O)CC1 (stereo not drawn)
[14] CN1CCN(C(c2ccc(Cl)cc2)c2cc(Cl)c3cccnc3c2O)CC1 (stereo not drawn)
[15] COCC#Cc1ccc(CC[C@H]2O[C@H]3CC[C@H](CO)O[C@H]3C[C@H]2NC(=O)Nc2c(C)noc2C)cc1
[16] COc1ccc(CN2CCC(N(CCc3ccccc3)Cc3ccccc3)CC2)c(OC)c1
Compound,9,10,11,12,13,14,15,16
E-sel inducer,-0.3,-0.1,nt,?,nt,nt,nt,-0.1
ARNT TACC3 PPI,0.8,0.1,nt,-6.5,nt,12.4,nt,12.3
AF4-AF9 inh,45.8*,5.1,28.7*,nt,81.5*,85.3*,-1.8,30.1*
ERAP1 inh,1.6,-2.3,-1.0,nt,0.7,-3.8,-2.0,-1.2
UUG fidelity,nt,-19.5,nt,-9.2,nt,-62.9,nt,8.0
S100A4 inh HTS,-3.9,-20.2,-9.5,nt,-9.8,0.1,-2.2,4.6
Alpha interfer,-24.8%,nt,-36.6%,nt,2.06µM*,2.17µM*,nt,-21.5%

[17] O=C(C1CC1)N1CC(=O)N2[C@H](CO)[C@@H](c3ccc(C#Cc4cccc(F)c4)cc3)[C@@H]2C1
[18] C(=C\c1ccc2ccccc2n1)/c1ccccc1
[19] C[C@H](CO)N1C[C@H](C)[C@H](CN(C)Cc2ccc(C(=O)O)cc2)Oc2c(cccc2N(C)C)C1=O
[20] CSc1ccc(-c2cc3c(c4c2ccn4C)C2CCC3C2)cc1 (stereo not drawn)
[21] Cn1ccc2c(N3CCCCC3)cc3c(c21)C1CCC3C1 (stereo not drawn)
[22] CS(=O)(=O)Nc1ccc2c(c1)[C@H]1C[C@@H](CC(=O)NCc3ccccc3F)O[C@H](CO)[C@H]1O2
[23] COc1ccc(C(CCNCc2ccc(N(C)C)cc2)c2ccccc2OC)cc1 (stereo not drawn)
[24] COc1ccc(CNCCC(c2ccc(OC)cc2)c2ccccc2OC)cc1 (stereo not drawn)
Compound,17,18,19,20,21,22,23,24
E-sel inducer,0.0,0.4,-2.4,-1.5,-1.4,0.1,-0.4,0.1
ARNT TACC3 PPI,nt,5.3,-18.6,nt,nt,-5.5,27.8,2.3
AF4-AF9 inh,-3.1,?,0.2,6.5,52.4*,1.5,51.4*,5.7
ERAP1 inh,-0.3,-2.2,-1.4,0.0,-0.6,1.5,1.5,0.8
UUG fidelity,nt,-80.3,-11.0,-5.1,1.2,-0.9,-2.9,-8.2
S100A4 inh HTS,4.7,-10.0,2.4,-18.0,-10.6,-4.9,-15.4,1.6
Alpha interfer,nt,-21.9%,nt,nt,-16.3%,nt,4.66µM*,nt

[25] CC(=O)n1c(-c2ccccc2)c(CO)c2ccccc21
[26] NCCc1c(-c2ccccc2)n(-c2ccccc2)c2ccccc12
[27] C[C@H](O)C#Cc1cnc2c(c1)C(=O)N([C@H](C)CO)C[C@@H](C)[C@H](CN(C)C(=O)c1ccccc1F)O2
[28] COC(=O)/C(C#N)=C/c1c(N2CCN(Cc3ccc4c(c3)OCO4)CC2)nc2c(C)cccn2c1=O
[29] CCOC(=O)/C(C#N)=C/c1c(N2CCN(Cc3ccc4c(c3)OCO4)CC2)nc2c(C)cccn2c1=O
[30] NCCCC[C@@H]1NC(=O)c2cc([N+](=O)[O-])cc(I)c2SC[C@@H](C(=O)NCC(N)=O)NC(=O)CNC1=O
[31] CC[C@H](C)[C@@H]1NC(=O)c2cc([N+](=O)[O-])cc(F)c2NCCCC[C@@H](C(N)=O)NC(=O)[C@H](CCCCN)NC1=O
[32] NCCCC[C@@H]1NC(=O)c2cc([N+](=O)[O-])cc(F)c2NCCCC[C@@H](C(N)=O)NC(=O)CNC1=O
Compound,25,26,27,28,29,30,31,32
E-sel inducer,0.2,nt,nt,nt,6.9,nt,0.5,nt
ARNT TACC3 PPI,0.0,nt,-1.0,-3.3,0.1,-2.5,7.7,-0.4
AF4-AF9 inh,-6.0,47.4*,-0.8,1.6,38.9*,nt,?,41.7*
ERAP1 inh,7.0,5.6,-1.7,1.2,1.1,nt,21.4,10.4
UUG fidelity,-18.5,nt,13.0,nt,-7.3,15.8,-12.2,-4.8
S100A4 inh HTS,-8.1,8.6,-9.7,-7.9,-2.5,nt,-6.1,-10.9
Alpha interfer,nt,13.8µM*,nt,nt,-7.3%,nt,-17.8%,-26.1%

[33] CC1Cc2ccccc2N1C(=O)c1ccc(N2CCCC2)c([N+](=O)[O-])c1 (stereo not drawn)
[34] CC1Cc2ccccc2N1C(=O)c1ccc(N2CCCCC2)c([N+](=O)[O-])c1 (stereo not drawn)
[35] O=C(N/N=C\c1c(O)ccc2ccccc12)c1ccc(O)cc1
[36] O=C(N/N=C/c1c(O)ccc2ccccc12)c1ccc[n+](CCO)c1
[37] Cn1cc(C(=O)N/N=C/c2c(O)ccc3ccccc23)ccc1=O
[38] CO[C@@H]1CN(C)C(=O)c2ccc(NS(C)(=O)=O)cc2OC[C@@H](C)N(S(C)(=O)=O)C[C@H]1C
[39] CO[C@@H]1CN(C)C(=O)c2cc(NC(=O)NC3CCCCC3)ccc2OC[C@H](C)N(C)C[C@@H]1C
[40] CN(C)c1ccc(/C=C2/C[N+](C)(C)C/C(=C/c3ccc(N(C)C)cc3)C2=O)cc1
[41] CC(=O)Nc1ccc2c(c1)C(=O)N(C)[C@@H]1CC[C@H](CC(=O)NCc3ccc(Cl)cc3)O[C@H]1CO2
[42] CC1(C)CNc2cc(N)ccc2S1
Compound,33,34,35,36,37,38,39,40,41,42
E-sel inducer,nt,nt,0.6,18.9,-0.2,-0.1,-0.2,0.3,0.1,0.0
ARNT TACC3 PPI,nt,3.1,9.1,63.6*,9.2,-3.6,-2.9,17.0,-1.9,10.5
AF4-AF9 inh,23.2,?,-4.1,82.0*,23.6,-4.1,-0.1,56.3*,0.7,62.6*
ERAP1 inh,-1.3,-1.6,-5.6,12.0,-0.6,-0.2,-1.8,10.9,0.1,-3.7
UUG fidelity,-14.6,-4.6,-17.7,nt,nt,nt,4.3,nt,5.9,nt
S100A4 inh HTS,-0.2,-7.4,0.5,-2.0,-2.7,-6.3,7.5,-77.2,3.2,-16.2
Alpha interfer,-20.9%,nt,nt,0.608µM*,-11.0%,nt,nt,5.83µM*,nt,2.31µM*

# Among those listed so far, these have a furan ring, fused or not:
[9] CCN(CC)c1ccc(N=Cc2ccc([N+](=O)[O-])o2)cc1
[10] O=C(CNC(=O)c1ccco1)Nc1ccc(N2CCCCCC2)cc1
[11] O=C(CNCc1ccco1)Nc1ccc(N2CCCCCC2)cc1
Compound,9,10,11
E-sel inducer,-0.3,-0.1,nt
ARNT TACC3 PPI,0.8,0.1,nt
AF4-AF9 inh,45.8*,5.1,28.7*
ERAP1 inh,1.6,-2.3,-1.0
UUG fidelity,nt,-19.5,nt
S100A4 inh HTS,-3.9,-20.2,-9.5
Alpha interfer,-24.8%,nt,-36.6%
